This is a selection; strong and weak results do not stand in their true shares. Some structures show a salt or complex split into parts, the way the source records it. Active and inactive are the calls of the source.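 How the source made its calls: active means inhibition above about 70% (limit read from the data); inactive means the rest.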
These compounds were tested against 14-3-3 protein zeta/delta (Bos taurus) (UniProt P63103) (assay: inhibitors of 14-3-3 zeta/Bad binding, primary screen, biochemical, TR-FRET, bovine 14-3-3 zeta (AID 781;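 further: 0% = full 14-3-3 plus peptide FRET controls and 100% = background without 14-3-3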)). Details: TR-FRET 14-3-3zeta/Dy647-pBad peptide displacement, 1 h; at 21.7 µM; active compounds read high.

By UniProt entry, the sequences of proteins in these tests, tags left out.
UniProt P63103, whole entry: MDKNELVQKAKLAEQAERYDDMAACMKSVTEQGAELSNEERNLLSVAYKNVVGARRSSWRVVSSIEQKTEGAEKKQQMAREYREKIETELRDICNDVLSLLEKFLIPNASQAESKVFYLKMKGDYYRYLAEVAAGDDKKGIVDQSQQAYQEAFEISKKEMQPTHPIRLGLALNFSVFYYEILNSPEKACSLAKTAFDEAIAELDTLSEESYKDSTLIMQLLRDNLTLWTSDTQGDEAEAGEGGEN

Row | Compound | inhibition
1 | CP(=O)(OC12CC3CC(CC(C3)C1)C2)OC12CC3CC(CC(C3)C1)C2 | inactive: 6.17%
2 | CCOC(=O)c1ccc(NP(C)(=O)Oc2ccc(Cl)cc2)cc1 (configuration not stated) | inactive: 6.01%
3 | CN(C)C(=O)c1c([N+](=O)[O-])cc([N+](=O)[O-])cc1[N+](=O)[O-] | inactive: -23.4%
4 | CP(=O)(Nc1ccc(Cl)cc1)Oc1ccc(F)cc1 (configuration not stated) | inactive: -6.77%
5 | COc1ccccc1OP(C)(=O)Nc1ccccc1Br (configuration not stated) | inactive: -5.33%
6 | CCc1ccc(OP(C)(=O)Nc2cccnc2)cc1 (configuration not stated) | inactive: -3.07%
7 | CP(=O)(Oc1ccccc1)N1CCOC1=O (configuration not stated) | inactive: -5.81%
8 | O=C(OCCCN1CCCC1)C(O)(c1ccccc1)C1CCCCC1 (configuration not stated) | inactive: -2.29%
9 | COc1ccc(OP(C)(=O)Nc2ccc(Br)cc2)cc1 (configuration not stated) | inactive: -2.06%
10 | CCN(CC)CC(O)COC(=O)C(O)(c1ccccc1)C1CCCCC1 (configuration not stated) | inactive: 0.94%
11 | CCc1ccc(OP(C)(=O)O)cc1 | inactive: 7.26%
12 | COc1ccccc1OP(C)(=O)Nc1ccc(C)cc1C (configuration not stated) | inactive: -0.69%
13 | CP(=O)(Nc1ccccn1)Oc1ccccc1 (configuration not stated) | inactive: 4.31%
14 | O=[N+]([O-])c1cc([N+](=O)[O-])c(Nc2ccccn2)c([N+](=O)[O-])c1 | inactive: -8.33%
15 | Cc1c(NP(C)(=O)Oc2ccc(C(C)C)cc2)c(=O)n(-c2ccccc2)n1C (configuration not stated) | inactive: -12.6%
16 | CN(C)CCOC(=O)C(O)(c1ccccc1)C1CCCC1 (configuration not stated) | inactive: 14%
17 | COc1ccc(OP(C)(=O)Nc2ccccn2)cc1 (configuration not stated) | inactive: -1.28%
18 | COc1ccccc1OP(C)(=O)Nc1ccc(Br)cc1 (configuration not stated) | inactive: 0.39%
19 | CP(=O)(OCCOc1ccccc1)OCCOc1ccccc1 | inactive: -1.3%
20 | CP(=O)(Nc1ccc(Cl)cc1Cl)Oc1ccccc1 (configuration not stated) | inactive: -5.13%
21 | Cc1nc2ccc3ccccc3c2o1.O=[N+]([O-])c1cc([N+](=O)[O-])c(O)c([N+](=O)[O-])c1 | inactive: 52.2%

Row | Compound | inhibition
22 | COc1ccc(OP(C)(=O)Nc2ccccc2Br)cc1 (configuration not stated) | inactive: -6.46%
23 | COc1ccccc1OP(C)(=O)Nc1ccc(C)c(C)c1 (configuration not stated) | inactive: -4.88%
24 | Cc1cc(C)cc(OP(C)(=O)Nc2cccc(C(F)(F)F)c2)c1 (configuration not stated) | inactive: -7.96%
25 | CCCCCOc1ccc(NP(C)(=O)Oc2ccc(Cl)cc2Cl)cc1 (configuration not stated) | inactive: 22%
26 | CP(=O)(Nc1ccccc1)Oc1ccc(F)cc1 (configuration not stated) | inactive: 3.03%
27 | CCN(CC)CCCOC(=O)C(O)(c1ccccc1)C1CCCCC1 (configuration not stated) | inactive: -0.14%
28 | COc1ccc(OP(C)(=O)Nc2ccc(SC(F)(F)F)cc2)cc1 (configuration not stated) | inactive: -9.85%
29 | CCOC(=O)c1ccc(NP(C)(=O)Oc2ccc(F)cc2)cc1 (configuration not stated) | inactive: -4.15%
30 | COc1ccc2c(c1O)-c1c(O)c(OC)cc3c1[C@H](C2)[N+](C)(C)CC3.O=[N+]([O-])c1cc([N+](=O)[O-])c([O-])c([N+](=O)[O-])c1[O-] | inactive: -2.48%
31 | O=C(OCCN1CCN(CCOCc2ccccc2)CC1)C(O)(c1ccccc1)c1ccccc1 | inactive: 36.7%
32 | O=C(OC1CN2CCC1CC2)c1ccc([N+](=O)[O-])cc1 (configuration not stated) | inactive: 6.88%
33 | CC(C)c1ccc(OP(C)(=O)Nc2ccc(SC(F)(F)F)cc2)cc1 (configuration not stated) | inactive: 9.27%
34 | CP(=O)(Nc1ccccc1F)Oc1ccccc1 (configuration not stated) | inactive: -1.33%
35 | Cc1ccccc1NP(C)(=O)Nc1ccccc1C | inactive: -2.59%
36 | CP(=O)(Nc1ccc2c(c1)OCCO2)Oc1ccccc1 (configuration not stated) | inactive: 16.2%
37 | CCOP(C)(=S)SCC(=O)NC(C)(CC)C(=O)O (configuration not stated) | inactive: -1.84%
38 | CP(=O)(Nc1ccc(SC(F)(F)F)cc1)Oc1ccc(F)cc1 (configuration not stated) | inactive: 5.01%
39 | Cc1cc(-c2cccc3ccccc23)c(C)cn1.O=[N+]([O-])c1cc([N+](=O)[O-])c(O)c([N+](=O)[O-])c1 | inactive: -1.74%
40 | O=[N+]([O-])c1cc([N+](=O)[O-])c(NCC2CCS(=O)(=O)C2)c([N+](=O)[O-])c1 (configuration not stated) | inactive: -3.55%
41 | O=[N+]([O-])c1ccc(OP2(=O)COCCO2)cc1 (configuration not stated) | inactive: 6.07%
42 | COc1ccc(NP(C)(=O)Oc2ccccc2OC)cc1 (configuration not stated) | inactive: -0.96%

Row | Compound | inhibition
43 | CN(C)CCOC(=O)C(O)(c1ccccc1)C1CCCCC1 (configuration not stated) | inactive: 7.49%
44 | COc1ccc(OP(C)(=O)Nc2cccc(Br)c2)cc1 (configuration not stated) | inactive: 9.96%
45 | CP(=O)(Nc1ccc(SC(F)(F)F)cc1)Oc1ccccc1 (configuration not stated) | inactive: -2.08%
46 | CCCOc1ccc(NP(C)(=O)Oc2ccc(Cl)cc2)cc1 (configuration not stated) | inactive: 0.9%
47 | CN1CCCCC1COC(=O)C1(O)c2ccccc2CCc2ccccc21 (configuration not stated) | inactive: -13.5%
48 | COc1ccccc1OP(C)(=O)Nc1c(C)cccc1C (configuration not stated) | inactive: -9.33%
49 | CCOC(=O)C(CC)C1=NC(C)(C)Cc2ccccc21.O=[N+]([O-])c1cc([N+](=O)[O-])c(O)c([N+](=O)[O-])c1 (configuration not stated) | inactive: -12.9%
50 | O=[N+]([O-])c1cc([N+](=O)[O-])c(Nc2nnnn2CCO)c([N+](=O)[O-])c1 | inactive: 3.2%
51 | Cc1nc2ccc3ccccc3c2s1.O=[N+]([O-])c1cc([N+](=O)[O-])c(O)c([N+](=O)[O-])c1 | inactive: 38.6%
52 | O=[N+]([O-])c1cc([N+](=O)[O-])c(-n2nnc3ccccc32)c([N+](=O)[O-])c1 | inactive: -12.6%
53 | CP(=O)(Nc1cccc(Br)c1)Oc1ccccc1 (configuration not stated) | inactive: -5.09%
54 | Cc1cc(C)cc(OP(C)(=O)Nc2ccccn2)c1 (configuration not stated) | inactive: -2.58%
55 | Cc1ccc(C)c(NP(C)(=O)Oc2ccccc2)c1 (configuration not stated) | inactive: 8.88%
56 | Cc1cc(C)cc(OP(C)(=O)Nc2ccc(C)cc2C)c1 (configuration not stated) | inactive: 4.54%
57 | CCOC(=O)c1ccc(NP(C)(=O)Oc2cc(C)cc(C)c2)cc1 (configuration not stated) | inactive: -11.2%
58 | COc1ccccc1OP(C)(=O)Nc1cccc(Br)c1 (configuration not stated) | inactive: 0.43%
59 | CC1=NCCc2c1[nH]c1ccccc21.O=[N+]([O-])c1cc([N+](=O)[O-])c(O)c([N+](=O)[O-])c1 | inactive: -4.83%
60 | O=C(O)c1cccc(Nc2c([N+](=O)[O-])cc([N+](=O)[O-])cc2[N+](=O)[O-])c1 | inactive: -0.53%
61 | COc1ccc(OP(C)(=O)Nc2cccc(F)c2)cc1 (configuration not stated) | inactive: 4.74%
62 | COc1ccccc1OP(C)(=O)Nc1cc(Cl)ccc1C (configuration not stated) | inactive: -0.62%
63 | Cc1cc(C)cc(OP(C)(N)=O)c1 (configuration not stated) | inactive: -0.48%

Row | Compound | inhibition
64 | CCOC(=O)c1ccc(NP(C)(=O)Oc2ccccc2)cc1 (configuration not stated) | inactive: 7.97%
65 | Cc1ccc(NP(C)(=O)Oc2ccccc2)c(C)c1 (configuration not stated) | inactive: -6.05%
66 | COc1ccccc1OP(C)(=O)Nc1ccc(C)cc1 (configuration not stated) | inactive: -9.7%
67 | Cc1cccc(C)c1OP(C)(N)=O (configuration not stated) | inactive: 0.74%
68 | CC(C)(C)c1ccc(OP(C)(=O)Nc2ccc(SC(F)(F)F)cc2)cc1 (configuration not stated) | inactive: 1.5%
69 | O=[N+]([O-])c1ccc2c(c1)C=Nc1ccccc1O2 | inactive: -5.36%
70 | CCN(CC)CCCOC(=O)C(O)(c1ccccc1)c1ccccc1 | inactive: -7.09%
71 | CP(=O)(Nc1ccccn1)Oc1ccc(Cl)cc1 (configuration not stated) | inactive: -1.17%
72 | CCOP(C)(=S)SCC(=O)NC(C)C(=O)O (configuration not stated) | inactive: -3.41%
73 | CCOC(=O)c1ccc(NP(C)(=O)Oc2ccc(OC)cc2)cc1 (configuration not stated) | inactive: 0.88%
74 | Cc1cc(C)cc(OP(C)(=O)Nc2ccc(SC(F)(F)F)cc2)c1 (configuration not stated) | inactive: 9.32%
75 | CCc1ccc(OP(C)(=O)N2CCN(c3ccc([N+](=O)[O-])cc3)CC2)cc1 (configuration not stated) | inactive: -1.42%
76 | CP(=O)(NC(=O)Nc1ccccc1)Oc1ccccc1 (configuration not stated) | inactive: -0.07%
77 | CP(=O)(Oc1ccccc1)OC(c1ccccc1)C(F)(F)F (configuration not stated) | inactive: -1.99%
78 | CP(=O)(Nc1ccc(SC(F)(F)F)cc1)Oc1ccc(Cl)cc1 (configuration not stated) | inactive: 3.18%
79 | Cc1cccc(C)c1OP(C)(=O)Nc1ccc(SC(F)(F)F)cc1 (configuration not stated) | inactive: -6.59%
80 | COc1ccccc1OP(C)(=O)Nc1ccccc1 (configuration not stated) | inactive: -6.67%
81 | CP(=O)(Nc1ccccc1Br)Oc1ccccc1 (configuration not stated) | inactive: -7.05%
82 | CP(=S)(Nn1cnnc1)Oc1ccccc1 (configuration not stated) | inactive: -20.1%
